Series [1] concerns bEnd.3 cells. Particulars: literature, mean (SD); cited from earlier work. An excerpt: Using solid-phase synthesis, we conjugated the photostable TAMRA fluorophore at either the N- or C-terminus of MTfp and GYR, respectively. By doing so, we could track the live uptake of these relevant brain-targeting peptides in vitro. Previously only quantitative assays have documented their improved BBB translocation, but fluorescence microscopy enables studies on uptake dynamics as well as intracellular localization and sorting. One observation made was that a significant fraction of the peptide was co-localized with the endo-lysosomal system. Ideally, the peptide s ...

Series [2] relates to bEnd.3 cells. Nature of the series: Paracellular permeability of 4 kDa dextran (Transwell). It is filed as in vitro ADME, mouse. The protocol:
The following equations [27] were used to calculate the permeability coefficient: Papp[cm/s]=B/T⋅vb/A⋅t⋅60 (1) Where Papp is the apparent permeability, B is the relative fluorescence unit (RFU) at time t, T is the top chamber RFU at time 0 (constant), Vb is the volume of the bottom channel [ml], A is the cross-section area of the membrane [cm^2], and t is the time [min].
The final endothelial permeability (Pe) was calculated based Eq (2): 1/Pe=1/Papp, bEnd.3+filter−1/Papp, filter (2) Where Papp, bEnd.3+filter is the apparent permeability of the bEnd.3 model (cells + filter), and Papp, filter is the apparent permeability of the collagen-coated blank porous membrane.
The paracellular permeability of fluorescein isothiocyanate (FITC) labeled 4 kDa dextran (FD4, Sigma Aldrich) to determine the tightness of our bEnd.3 model.
The bEnd.3 cells were cultured with rat astrocytes as described above. On the day of the experiment, the inserts were transferred to a new astrocyte-free plate, and the medium was changed on both the apical and basolateral sides. To initiate the permeability experiment and avoid the temporary disruption of the barrier, 50 μL medium was removed from the apical side and 50 μL 200 μM working solution of 4kDa FITC-dextran was added to the upper well, i.e. the apical well had 500 μl 10 μM 4kDa FITC-dextran. In every 15 min for a period of 60 min, starting from 0 min, 100 μl medium was removed from the basolateral side. At the final time point, 100 μl medium was also removed from the apical compartment. The fluorescence intensity of the sample was read by a CLARIOstar® Plus microplate reader (BMG Labtech) (λExc = 485 nm, λEm = 515 nm, Bandwidth = 15 and 20 nm, respectively), and the paracellular permeability was calculated according to Eqs (1) and (2). The permeability experiments were repeated three times in technical triplicates, and the data are represented as mean (SD).

As for FITC-Dextran, the “Mean Pe” value in the series on bEnd.3 cells [1] is on record as 2.91 (0.43) x 10^−6 cm/s. For the same substance, in the series on bEnd.3 cells [2] (bEnd.3 cultured with rat astrocytes, polyester Transwell 0.4 μm, 10 μM apical, 60 min, fluorescence Ex 485/Em 515 nm, mean (SD) of three independent experiments with triplicates), the “Papp, bEnd.3+F (apparent permeability through bEnd.3 grown on filter)” value is 3.32 (0.48) x 10^−6 cm/s. Moreover, in the series on bEnd.3 cells [2] (cell-free collagen-coated polyester Transwell filter, 0.4 μm pores, 10 μM apical, sampled every 15 min for 60 min, fluorescence Ex 485/Em 515 nm, mean (SD) of three independent experiments with triplicates), the “Papp,F (apparent permeability through filter)” value is listed as 8.49 (1.90) x 10^−6 cm/s. For the same substance, the “Papp across empty filter relative to Papp of MTfp” value in the series with bEnd.3 cells [2] (cell-free collagen-coated polyester filter) amounted to 1.45 times. Besides, the “Pe ("real" endothelial permeability)” value in the series on bEnd.3 cells [2] (paracellular marker, 1/Pe = 1/Papp,bEnd.3+filter − 1/Papp,filter, 10 μM apical, 60 min, mean (SD) of three independent experiments with triplicates) is given as 5.79 (0.44) x 10^−6 cm/s.

The values above are taken from publication PMC8018780, “Two peptides targeting endothelial receptors are internalized into murine brain endothelial cells” (PLoS ONE, 2021).
